Molecular target: PLA2G4A (cytosolic phospholipase A2α, cPLA2α) (Homo sapiens, UniProt P47712)
Experiment: biochemical

Amino acid sequences for entries named in this document (tags omitted). A change or cut given only in a name is not applied to a line headed by its entry.
UniProt P47712: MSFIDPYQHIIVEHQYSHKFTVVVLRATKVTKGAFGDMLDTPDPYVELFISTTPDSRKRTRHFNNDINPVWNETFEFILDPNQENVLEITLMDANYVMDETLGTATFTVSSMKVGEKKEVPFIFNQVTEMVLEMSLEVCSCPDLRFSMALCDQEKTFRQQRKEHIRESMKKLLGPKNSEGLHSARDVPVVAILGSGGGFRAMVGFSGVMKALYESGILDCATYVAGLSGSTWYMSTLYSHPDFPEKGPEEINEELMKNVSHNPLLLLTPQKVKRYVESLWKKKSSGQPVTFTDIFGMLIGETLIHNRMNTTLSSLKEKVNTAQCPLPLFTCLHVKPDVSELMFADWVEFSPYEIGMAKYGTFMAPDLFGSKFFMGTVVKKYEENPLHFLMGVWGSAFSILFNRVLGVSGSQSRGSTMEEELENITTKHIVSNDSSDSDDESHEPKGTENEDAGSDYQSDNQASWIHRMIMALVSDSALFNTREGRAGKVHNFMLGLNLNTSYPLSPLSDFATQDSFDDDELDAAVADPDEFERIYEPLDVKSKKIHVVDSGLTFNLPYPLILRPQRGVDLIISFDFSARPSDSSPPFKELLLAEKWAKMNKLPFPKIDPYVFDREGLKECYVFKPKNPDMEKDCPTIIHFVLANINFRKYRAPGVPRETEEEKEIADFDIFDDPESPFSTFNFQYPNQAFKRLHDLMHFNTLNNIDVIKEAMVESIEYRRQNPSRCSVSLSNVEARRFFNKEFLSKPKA

COc1ccc2cc3[n+](cc2c1OC)CCc1cc2c(cc1-3)OCO2 [berberine]
IC50: 15 µM
